Test system: transglutaminase (TGase I)
Test: Transglutaminase (Tgase) ELISA assay in cultured keratinocytes with retinol and boosters
Assay type: cell-based, human
Details: 1 μM retinoid, day 2, keratinocytes 4000 cells/well

## CC1=C(/C=C/C(C)=C/C=C/C(C)=C/C(=O)O)C(C)(C)CCC1 [retinoic acid, all-trans-retinoic acid, reference compound]
  inhibition of transglutaminase production (maximal): 85%

— patent US8409550B2, “Method for treating skin with retinoids and retinoid boosters” (Unilever Home & Personal Care, USA, Division of Conopco, …, priority 2000, dated 2013)
